Data as given in BindingDB's records for PubMed 35944850 (Vanderbilt University, 2022).

Protein sequences, listed by entry. Tags and fused reporters are not part of them.
UniProt Q14831, whole entry: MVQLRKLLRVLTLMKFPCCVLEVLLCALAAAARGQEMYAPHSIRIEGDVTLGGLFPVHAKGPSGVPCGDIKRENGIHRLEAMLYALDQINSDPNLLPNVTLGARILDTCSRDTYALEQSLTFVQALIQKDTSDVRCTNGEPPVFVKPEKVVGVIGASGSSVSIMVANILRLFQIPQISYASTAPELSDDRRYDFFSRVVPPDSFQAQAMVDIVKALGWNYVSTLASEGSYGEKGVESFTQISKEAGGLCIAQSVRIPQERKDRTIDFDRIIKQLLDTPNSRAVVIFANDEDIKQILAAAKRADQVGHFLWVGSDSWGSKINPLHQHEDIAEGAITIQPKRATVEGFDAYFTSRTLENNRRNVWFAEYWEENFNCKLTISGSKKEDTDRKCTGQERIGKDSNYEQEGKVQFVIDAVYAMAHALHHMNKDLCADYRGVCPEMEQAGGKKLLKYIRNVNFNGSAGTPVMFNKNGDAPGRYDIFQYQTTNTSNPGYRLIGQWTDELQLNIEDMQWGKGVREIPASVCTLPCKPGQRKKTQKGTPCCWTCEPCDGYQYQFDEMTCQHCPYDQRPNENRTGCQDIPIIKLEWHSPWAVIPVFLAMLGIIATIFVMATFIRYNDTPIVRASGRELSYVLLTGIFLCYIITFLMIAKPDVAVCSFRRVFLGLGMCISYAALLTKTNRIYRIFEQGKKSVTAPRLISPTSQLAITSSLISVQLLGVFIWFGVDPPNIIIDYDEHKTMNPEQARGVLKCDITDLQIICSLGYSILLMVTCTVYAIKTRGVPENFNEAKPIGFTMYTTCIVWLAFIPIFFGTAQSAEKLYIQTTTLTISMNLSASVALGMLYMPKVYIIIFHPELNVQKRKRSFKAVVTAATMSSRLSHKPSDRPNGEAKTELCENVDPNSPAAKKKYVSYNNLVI

Target: Metabotropic glutamate receptor 7 (Homo sapiens, UniProt Q14831)

Structure (SMILES): CCCOc1ccc(C(=O)Nc2cc(OC(F)(F)F)ccc2-n2cncn2)cc1OC
- IC50: 1580 nM
